In patent US9694016B2 (Novartis AG, priority 2013, dated 2017) one finds IC50 data, which are given here for 31 molecules.

Chains of the proteins cited; added tags and fusions are not shown.
UniProt P04049, whole entry Y340E/Y341E: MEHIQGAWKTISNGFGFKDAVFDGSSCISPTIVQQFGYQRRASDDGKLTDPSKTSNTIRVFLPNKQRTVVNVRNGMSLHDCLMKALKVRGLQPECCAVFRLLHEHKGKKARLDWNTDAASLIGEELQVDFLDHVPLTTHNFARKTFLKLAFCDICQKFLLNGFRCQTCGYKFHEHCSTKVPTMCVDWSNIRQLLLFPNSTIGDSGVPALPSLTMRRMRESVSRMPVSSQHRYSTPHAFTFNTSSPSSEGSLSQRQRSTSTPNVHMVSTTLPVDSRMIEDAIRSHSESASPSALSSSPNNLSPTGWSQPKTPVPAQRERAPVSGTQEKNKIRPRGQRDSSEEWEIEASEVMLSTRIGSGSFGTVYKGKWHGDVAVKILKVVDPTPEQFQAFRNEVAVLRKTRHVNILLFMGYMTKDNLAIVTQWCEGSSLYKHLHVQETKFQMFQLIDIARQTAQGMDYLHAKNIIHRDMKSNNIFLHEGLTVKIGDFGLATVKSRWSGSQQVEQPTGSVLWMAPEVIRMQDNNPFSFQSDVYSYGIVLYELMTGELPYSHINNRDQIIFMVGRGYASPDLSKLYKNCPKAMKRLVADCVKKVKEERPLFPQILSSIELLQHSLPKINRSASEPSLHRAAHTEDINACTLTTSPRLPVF

Structures are written as SMILES.

The target of the first assay is C-Raf FL (full-length C-Raf protein, Y340E and Y341E activating mutations) (Homo sapiens (Human), UniProt P04049, Y340E/Y341E). Type of assay: biochemical. As to conditions: AlphaScreen, 60 min pre-incubation, 1 hour reaction; read-out: c-Raf FL IC-50. On the technique in general: In Alpha technology, singlet oxygen from a donor bead excites a nearby acceptor bead.
`Cc1ccc(NC(=O)c2cccc(C(F)(F)F)c2)cc1-c1nc(N2CCOCC2)c2cnn(C)c2n1` [Example 840, N-(4-methyl-3-(1-methyl-4-morpholino-1H-pyrazolo[3,4-d]pyrimidin-6-yl)phenyl)-3-(trifluoromethyl)benzamide]: the IC50 was 0.2 nM.

As to `Cc1ccc(NC(=O)c2ccnc(C(C)(C)C#N)c2)cc1-c1cc(N2CCOCC2(C)C)c(=O)n(C)n1` [Example 671, 2-(2-cyanopropan-2-yl)-N-(3-(5-(3,3-dimethylmorpholino)-1-methyl-6-oxo-1,6-dihydropyridazin-3-yl)-4-methylphenyl)isonicotinamide], the IC50 came out at 6.8 nM.

With `COCCN(C)c1cc(C(=O)Nc2ccc(C)c(-c3cc(N4CCOCC4)c(=O)n(C)c3)c2)ccn1` [Example 455, 2-((2-methoxyethyl)(methyl)amino)-N-(4-methyl-3-(1-methyl-5-morpholino-6-oxo-1,6-dihydropyridin-3-yl)phenyl)isonicotinamide], the IC50 was found to be 0.7 nM.

For `CCOc1nnc(-c2cc(NC(=O)c3ccnc(C(C)(C)F)c3)cnc2C)cc1N1CCOCC1` [Example 610, N-(5-(6-ethoxy-5-morpholinopyridazin-3-yl)-6-methylpyridin-3-yl)-2-(2-fluoropropan-2-yl)isonicotinamide], the IC50 came to 1.5 nM.

As to `Cc1ccc(NC(=O)c2ccnc(C(C)(F)F)c2)cc1-c1cc(N2C3CCC2COC3)n(C)c(=O)c1` [Example 527, N-(3-(6-(3-oxa-8-azabicyclo[3.2.1]octan-8-yl)-1-methyl-2-oxo-1,2-dihydropyridin-4-yl)-4-methylphenyl)-2-(1,1-difluoroethyl)isonicotinamide], the IC50 worked out at 1 nM.

`Cc1ccc(NC(=O)c2cn(C)nc2C)cc1-c1cc2[nH]cnc2c(N2CCOCC2)n1` [Example 815, 1,3-dimethyl-N-(4-methyl-3-(4-morpholino-1H-imidazo[4,5-c]pyridin-6-yl)phenyl)-1H-pyrazole-4-carboxamide]: the IC50 was determined as 9 nM.

As to `Cc1ccc(NC(=O)c2cc(C3CC3)on2)cc1-c1cc2[nH]cnc2c(N2CCOCC2)n1` [Example 820, 5-cyclopropyl-N-(4-methyl-3-(4-morpholino-1H-imidazo[4,5-c]pyridin-6-yl)phenyl)isoxazole-3-carboxamide], the IC50 was 0.1 nM.

Turning to `CCOc1nnc(-c2cc(NC(=O)c3ccnc(S(C)(=O)=O)c3)cnc2C)cc1N1CCOCC1` [Example 615, N-(5-(6-ethoxy-5-morpholinopyridazin-3-yl)-6-methylpyridin-3-yl)-2-(methylsulfonyl)isonicotinamide], the IC50 came to 8.6 nM.

With `Cc1ccc(NC(=O)c2ccnc(C(C)(C)O)c2)cc1-c1cc(N2CCOCC2)c(OC2CCOCC2)nn1` [Example 581, 2-(2-hydroxypropan-2-yl)-N-(4-methyl-3-(5-morpholino-6-((tetrahydro-2H-pyran-4-yl)oxy)pyridazin-3-yl)phenyl)isonicotinamide], the IC50 was found to be 0.7 nM.

In the case of `Cc1ncc(NC(=O)c2ccnc(C(C)(C)O)c2)cc1-c1cc(N2CCOCC2)c(OC2CCOCC2)nn1` [Example 634, 2-(2-hydroxypropan-2-yl)-N-(6-methyl-5-(5-morpholino-6-((tetrahydro-2H-pyran-4-yl)oxy)pyridazin-3-yl)pyridin-3-yl)isonicotinamide], the IC50 amounted to 3.6 nM.

In the case of `Cc1ccc(NC(=O)c2ccnc(C(C)(C)C#N)c2)cc1-c1cc(N2CCOCC2)nc(NC[C@H](C)O)n1` [Example 739, (S)-2-(2-cyanopropan-2-yl)-N-(3-(2-((2-hydroxypropyl)amino)-6-morpholinopyrimidin-4-yl)-4-methylphenyl)isonicotinamide], the IC50 is 1.4 nM.

On to `COCCOc1nnc(-c2cc(NC(=O)c3cc(C(F)(F)F)ccn3)ccc2C)cc1N1CCOCC1` [Example 599, N-(3-(6-(2-methoxyethoxy)-5-morpholinopyridazin-3-yl)-4-methylphenyl)-4-(trifluoromethyl)picolinamide], for which the IC50 came to 0.2 nM.

As for `COc1nnc(-c2cc(NC(=O)c3ccnc(C(C)(C)O)c3)ccc2C)cc1N1CCOCC1` [Example 556, 2-(2-hydroxypropan-2-yl)-N-(3-(6-methoxy-5-morpholinopyridazin-3-yl)-4-methylphenyl)isonicotinamide], the IC50 amounted to 1.5 nM.

Consider `Cc1ccc(NC(=O)c2ccnc(C(F)F)c2)cc1-c1cc(N2CCOCC2)n2nccc2n1` [Example 805, 2-(difluoromethyl)-N-(4-methyl-3-(7-morpholinopyrazolo[1,5-a]pyrimidin-5-yl)phenyl)isonicotinamide], for which the IC50 amounted to 0.2 nM.

As to `CCn1cc(C(=O)Nc2ccc(C)c(-c3cc(N4CCOCC4)c(=O)n(C)n3)c2)cc(C(F)(F)F)c1=O` [Example 641, 1-ethyl-N-(4-methyl-3-(1-methyl-5-morpholino-6-oxo-1,6-dihydropyridazin-3-yl)phenyl)-6-oxo-5-(trifluoromethyl)-1,6-dihydropyridine-3-carboxamide], the IC50 amounted to 0.7 nM.

For the molecule `CCNc1nc(-c2cc(NC(=O)c3ccnc(C(C)(C)C#N)c3)ccc2C)cc(N2CCOCC2)n1` [Example 717, 2-(2-cyanopropan-2-yl)-N-(3-(2-(ethylamino)-6-morpholinopyrimidin-4-yl)-4-methylphenyl)isonicotinamide], the IC50 is 0.8 nM.

Take `CCC(F)(F)c1cc(C(=O)Nc2ccc(C)c(-c3cc(N4CCOCC4)c(OC)nn3)c2)ccn1` [Example 549, 2-(1,1-difluoropropyl)-N-(3-(6-methoxy-5-morpholinopyridazin-3-yl)-4-methylphenyl)isonicotinamide]: the IC50 was found to be 0.5 nM.

Take `CCNc1nc(-c2cc(NC(=O)c3ccnc(C(C)(C)C)c3)ccc2C)cc(N2CCOCC2)n1` [Example 696, 2-(tert-butyl)-N-(3-(2-(ethylamino)-6-morpholinopyrimidin-4-yl)-4-methylphenyl)isonicotinamide]: the IC50 stood at 1 nM.

The assay is the same for the next values; noted with them: AlphaScreen, 60 min pre-incubation, reaction 1 hour at room temperature; read-out: c-Raf FL IC-50.
Take `Cc1ncc(NC(=O)c2cc(C(F)(F)F)ccn2)cc1-c1cnc(OC2CCOCC2)c(N2CCOCC2)c1` [Example 942, N-(2-methyl-5′-morpholino-6′-((tetrahydro-2H-pyran-4-yl)oxy)-[3,3′-bipyridin]-5-yl)-4-(trifluoromethyl)picolinamide]: the IC50 was found to be 0.59 nM.

Turning to `Cc1ccc(NC(=O)c2ccnc(C(C)(C)F)c2)cc1-c1cc(C2COCCO2)nc(N2CCOCC2)c1` (stereo not shown) [Example 1144, N-(3-(2-(1,4-dioxan-2-yl)-6-morpholinopyridin-4-yl)-4-methylphenyl)-2-(2-fluoropropan-2-yl)isonicotinamide], the IC50 was found to be 0.46 nM.

Take `Cc1ccc(NC(=O)c2ccnc(C(C)(C)C#N)c2)cc1-c1cc(N2CCOCC2)nc(N2CC(C)(O)C2)c1` [Example 1110, 2-(2-cyanopropan-2-yl)-N-(3-(2-(3-hydroxy-3-methylazetidin-1-yl)-6-morpholinopyridin-4-yl)-4-methylphenyl)isonicotinamide]: the IC50 came out at 0.75 nM.

For the molecule `Cc1ncc(NC(=O)c2cnnc(C(F)(F)F)c2)cc1-c1cc(NCCO)nc(N2CCOCC2)c1F` [Example 1004, N-(3′-fluoro-6′-((2-hydroxyethyl)amino)-2-methyl-2′-morpholino-[3,4′-bipyridin]-5-yl)-6-(trifluoromethyl)pyridazine-4-carboxamide], the IC50 stood at 14 nM.

Regarding `Cc1ncc(NC(=O)c2cccc(S(C)(=O)=O)c2)cc1-c1cc(N2CCOCC2)nc(N2CC(O)C2)c1` [Example 1084, N-(2′-(3-hydroxyazetidin-1-yl)-2-methyl-6′-morpholino-[3,4′-bipyridin]-5-yl)-3-(methylsulfonyl)benzamide], the IC50 was found to be 3.39 nM.

As for `Cc1ncc(NC(=O)c2ccnc(C(C)(C)F)c2)cc1-c1cnc(OC[C@H](C)O)c(N2CCOCC2)c1` [Example 990, (S)-2-(2-fluoropropan-2-yl)-N-(6′-(2-hydroxypropoxy)-2-methyl-5-morpholino-[3,3′-bipyridin]-5-yl)isonicotinamide], the IC50 was found to be 2 nM.

The same assay, now with this note: Table 2; AlphaScreen, 1 hour reaction; read-out: c-Raf FL IC-50.
With `Cc1ccc(NC(=O)c2cncc(N(C)C)c2)cc1-c1cc(N2CCOCC2)c(=O)n(C)c1` [Example 175, 5-(dimethylamino)-N-(4-methyl-3-(1-methyl-5-morpholino-6-oxo-1,6-dihydropyridin-3-yl)phenyl)nicotinamide], the IC50 is 0.2 nM.

For `Cc1ncc(NC(=O)c2ccnc(C(C)(C)F)c2)cc1-c1cnc(OC2CCOCC2)c(N2CCOCC2)c1` [Example 273, 2-(2-fluoropropan-2-yl)-N-(2-methyl-5′-morpholino-6′-((tetrahydro-2H-pyran-4-yl)oxy)-[3,3′-bipyridin]-5-yl)isonicotinamide], the IC50 was determined as 1.1 nM.

Take `CNc1nc(-c2cc(NC(=O)c3cccc(C(F)(F)F)c3)ccc2C)cc(N2CCOCC2)n1` [Example 30, N-(4-methyl-3-(2-(methylamino)-6-morpholinopyrimidin-4-yl)phenyl)-3-(trifluoromethyl)benzamide]: the IC50 was found to be 0.3 nM.

As for `Cc1ncc(NC(=O)c2ccnc(C(F)(F)F)c2)cc1-c1cncc(N2CCOCC2)c1` [Example 295], the IC50 was determined as 0.6 nM.

Consider `CCOc1ncc(-c2cc(NC(=O)c3cccc(S(C)(=O)=O)c3)ccc2C)cc1N1CCOCC1` [Example 229, N-(3-(6-ethoxy-5-morpholinopyridin-3-yl)-4-methylphenyl)-3-(methylsulfonyl)benzamide], for which the IC50 was 0.3 nM.

With `Cc1ccc(NC(=O)c2ccnc(C3CC3)c2)cc1-c1cc(N2CCOCC2)c(=O)n(C)c1` [Example 354, 2-cyclopropyl-N-(4-methyl-3-(1-methyl-5-morpholino-6-oxo-1,6-dihydropyridin-3-yl)phenyl)isonicotinamide], the IC50 was 0.2 nM.

With `CCOc1ncc(-c2cc(NC(=O)c3ccnc(C(C)(C)O)c3)cnc2C)cc1N1CCOCC1` [Example 240, N-(6′-ethoxy-2-methyl-5′-morpholino-[3,3′-bipyridin]-5-yl)-2-(2-hydroxypropan-2-yl)isonicotinamide], the IC50 was 5.1 nM.
